Measurements taken from patent US20250059217A1, “HETEROCYCLIC COMPOUNDS AND METHODS OF PREPARATION THEREOF” (priority 2021, published 2025).

The chains behind the UniProt entries cited, without tags or fusion partners.
UniProt P41595, whole entry: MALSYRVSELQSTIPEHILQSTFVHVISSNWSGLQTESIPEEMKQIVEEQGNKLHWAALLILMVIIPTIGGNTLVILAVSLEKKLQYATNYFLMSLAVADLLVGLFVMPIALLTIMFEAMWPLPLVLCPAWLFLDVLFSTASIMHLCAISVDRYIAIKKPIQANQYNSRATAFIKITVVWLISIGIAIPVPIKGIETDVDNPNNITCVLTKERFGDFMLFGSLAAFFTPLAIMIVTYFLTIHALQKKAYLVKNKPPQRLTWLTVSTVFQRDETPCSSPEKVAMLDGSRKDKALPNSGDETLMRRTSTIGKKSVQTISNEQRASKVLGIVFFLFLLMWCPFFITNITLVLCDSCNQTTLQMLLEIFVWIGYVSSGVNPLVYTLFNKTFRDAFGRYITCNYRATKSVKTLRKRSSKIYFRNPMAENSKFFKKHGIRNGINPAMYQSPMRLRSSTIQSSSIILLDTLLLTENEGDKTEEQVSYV

Target: T1, 5-HT2B receptor (Homo sapiens, UniProt P41595)
T1 construct: expressed in transfected cells; host or cells: HEK293T
Test: Serotonin receptor 5-HT2 functional assay (Gq dissociation BRET or Gq-dependent calcium flux), 5-HT2B
Format: cell-based

| SMILES | EC50 (5-HT2B EC50 (nM), Table 5, 5-HT2B receptor, compared with psilocin) [nM] | EC50 (5-HT2B BRET EC50 (nM), Table 4, relative to 4-hydroxytryptamine, at least three replicate trials) [nM] |
| --- | --- | --- |
| CN(C)CCc1c[nH]c2cccc(O)c12 [drawing 39] | 1.1 | – |
| CN(C)CCc1c[nH]c2cccc(O)c12 [psilocin, reference compound] | – | 1.07 |
